Laboratory results: US9249153B2, “Pharmaceutical composition for treating aging-associated diseases, containing progerin expression inhibitor as active ingredient, and screening method of said progerin expression inhibitor” (PUSAN NATIONAL UNIVERSITY INDUSTRY-UNIVERSITY COOPERATION …, priority 2011, dated 2016)

Test system: H3K9Me3
Conditions: HGPS cells

SMILES	expression of H3K9Me3
CC1(C)Oc2cc3oc(=O)ccc3cc2C[C@@H]1OC(=O)C=Cc1cccnc1 [JH4, (7S)-(+)-3-(3-Pyridyl)-acrylic acid, 8,8-dimethyl-2-oxo-6,7-dihydro-2H,8H-pyrano[3,2-g]chromen-7-yl-ester]	increased the expression of H3K9Me3
CC1(C)Oc2cc3oc(=O)ccc3cc2C[C@@H]1OC(=O)C=Cc1ccc(O)c(O)c1 [JH13, (7S)-(+)-3-(3,4-Dihydroxy-phenyl)-acrylic acid, 8,8-dimethyl-2-oxo-6,7-dihydro-2H,8H-pyrano[3,2-g]chromen-7-yl-ester]	increased the expression of H3K9Me3
